How the values were obtained:
µ-opioid receptor (µOR) [1] = target: µ-opioid receptor (µOR) (Rattus norvegicus, UniProt P33535); settings: 100 µM G-peptide added
µ-opioid receptor (µOR) [2] = settings: cited from earlier work

Amino acid sequences for entries named in this document (tags omitted).
UniProt P33535, whole entry: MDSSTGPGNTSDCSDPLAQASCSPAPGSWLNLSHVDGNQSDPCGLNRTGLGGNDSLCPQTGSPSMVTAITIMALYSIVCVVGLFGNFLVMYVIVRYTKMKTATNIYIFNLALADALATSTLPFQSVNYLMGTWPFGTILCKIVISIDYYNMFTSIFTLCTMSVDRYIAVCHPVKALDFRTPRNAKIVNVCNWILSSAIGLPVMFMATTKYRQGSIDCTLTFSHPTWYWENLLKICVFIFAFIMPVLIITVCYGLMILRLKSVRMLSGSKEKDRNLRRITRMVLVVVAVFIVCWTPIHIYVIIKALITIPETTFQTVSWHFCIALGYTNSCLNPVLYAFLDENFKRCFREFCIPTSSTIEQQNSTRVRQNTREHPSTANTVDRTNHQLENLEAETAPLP

Structure (SMILES): C[C@@H](Cc1ccsc1)NC(=O)NC[C@H](Cc1ccc(O)cc1)N(C)C
- baseline of the binding curve (µ-opioid receptor (µOR) [1]): elevated
- effect of adding G-peptide on ligand affinity / binding curve (µ-opioid receptor (µOR) [1]; competition against [^3H]DAMGO): increase in the affinity toward µOR
- functional profile (µ-opioid receptor (µOR) [2]): Gi-biased agonist

From PMC10060287 (Pharmacological Reports, 2023)
